Assays:
[1] = in vitro; conditions: rat, microsomes
[2] = biological target: cannabinoid CB1 (Rattus norvegicus, UniProt P20272); test: biochemical; conditions: read-out: % of control specific binding, CB1
[3] = biological target: 5-HT6R (Homo sapiens, UniProt P50406); conditions: read-out: Ki 5-HT6R; cited from earlier work
[4] = biological target: human histamine H3 receptor (Homo sapiens, UniProt Q9Y5N1); test: biochemical; conditions: read-out: % of control specific binding, H3
[5] = test system: rats; conditions: rat, in vivo

Sequences of proteins named here, by UniProt entry; tags and fusion partners are left off. A change or cut given only in a name is not applied to a line headed by its entry.
UniProt P20272, whole entry: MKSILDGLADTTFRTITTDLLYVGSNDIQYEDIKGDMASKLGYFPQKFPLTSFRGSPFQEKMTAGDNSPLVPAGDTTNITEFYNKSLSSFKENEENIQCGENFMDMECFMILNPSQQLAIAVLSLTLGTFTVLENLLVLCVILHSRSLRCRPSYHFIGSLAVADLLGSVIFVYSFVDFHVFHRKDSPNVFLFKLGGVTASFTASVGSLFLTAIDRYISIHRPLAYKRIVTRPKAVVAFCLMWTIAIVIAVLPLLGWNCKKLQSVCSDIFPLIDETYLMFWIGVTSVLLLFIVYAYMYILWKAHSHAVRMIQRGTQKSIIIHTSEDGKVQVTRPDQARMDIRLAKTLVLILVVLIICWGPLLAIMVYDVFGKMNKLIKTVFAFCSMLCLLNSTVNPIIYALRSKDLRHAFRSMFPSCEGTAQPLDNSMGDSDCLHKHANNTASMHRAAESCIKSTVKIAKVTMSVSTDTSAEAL
UniProt P50406, whole entry: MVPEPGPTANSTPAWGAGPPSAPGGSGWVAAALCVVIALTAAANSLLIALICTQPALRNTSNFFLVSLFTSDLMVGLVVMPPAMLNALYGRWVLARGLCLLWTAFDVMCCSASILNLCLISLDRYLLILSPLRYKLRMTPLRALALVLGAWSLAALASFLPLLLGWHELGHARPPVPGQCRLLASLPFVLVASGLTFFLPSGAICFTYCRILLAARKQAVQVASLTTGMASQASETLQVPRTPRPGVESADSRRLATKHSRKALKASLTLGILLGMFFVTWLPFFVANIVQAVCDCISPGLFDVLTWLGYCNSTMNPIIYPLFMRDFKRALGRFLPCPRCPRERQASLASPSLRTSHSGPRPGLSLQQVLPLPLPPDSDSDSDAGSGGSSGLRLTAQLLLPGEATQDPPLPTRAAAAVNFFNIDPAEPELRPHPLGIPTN
UniProt Q9Y5N1: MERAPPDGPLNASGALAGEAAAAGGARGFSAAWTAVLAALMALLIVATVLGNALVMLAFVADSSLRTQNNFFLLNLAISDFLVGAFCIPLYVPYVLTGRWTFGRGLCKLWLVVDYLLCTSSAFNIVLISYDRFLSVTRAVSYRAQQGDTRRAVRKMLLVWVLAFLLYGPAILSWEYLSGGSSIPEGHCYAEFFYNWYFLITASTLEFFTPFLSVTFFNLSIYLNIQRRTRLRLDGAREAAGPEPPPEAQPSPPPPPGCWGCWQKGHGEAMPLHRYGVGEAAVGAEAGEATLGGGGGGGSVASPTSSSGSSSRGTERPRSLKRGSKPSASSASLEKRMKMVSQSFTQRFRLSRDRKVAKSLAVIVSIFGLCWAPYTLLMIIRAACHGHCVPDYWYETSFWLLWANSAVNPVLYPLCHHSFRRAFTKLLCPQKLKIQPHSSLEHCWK

Row | Compound | Ki [3] [nM] | further results
1 | CC([Se]c1ccc2ccccc2c1)c1nc(N)nc(N2CCN(C)CC2)n1 (centres unmarked) | – | remaining at 2 h [1]: 53.3%
2 | CCC([Se]c1ccc2ccccc2c1)c1nc(N)nc(N2CCN(C)CC2)n1 (centres unmarked) | – | remaining at 2 h [1]: 77.6%
3 | Cc1c(C(=O)NN2CCCCC2)nn(-c2ccc(Cl)cc2Cl)c1-c1ccc(I)cc1 [AM251] | – | inhibition at 1 µM [2]: 100%
4 | CC(C)CS(=O)(=O)n1ccc2c(-c3ccc(C(F)(F)F)cc3)cc(N3CCN(C)CC3)nc21 [A] | 52 | –
5 | CCS(=O)(=O)c1nc(S(=O)(=O)c2ccc(Cl)cc2)c(N2CCc3ccccc3C2)s1 [E] | 119 | –
6 | NC(=O)NCC1CCCc2cc(S(=O)(=O)c3ccccc3)ccc21 (centres unmarked) [F] | 0.63 | –
7 | CN1CCN(c2nc(N)nc(-c3ccc(Cl)cc3)n2)CC1 [III] | 2710 | –
8 | CN1CCN(c2nc(N)nc(COc3ccccc3)n2)CC1 [IV] | 507 | –
9 | CN1CCN(c2nc(N)nc(Cc3ccc(Cl)cc3)n2)CC1 [I] | 52 | –
10 | Clc1ccc(CCCOCCCN2CCCCC2)cc1 [Pitolisant] | – | inhibition at 1 µM [4]: 71%
11 | COc1cc2c(cc1OC)C(=O)C(CC1CCN(Cc3ccccc3)CC1)C2 (centres unmarked) [donepezil] | – | reversal of MK-801-induced memory impairment, discrimination index (DI) [5]: statistically significant level was reached

Source: PMC10823479 (Journal of Medicinal Chemistry, 2024)
